Experimental data as given in US7265103B2, “Substituted amino isoxazoline derivatives and their use as anti-depressants” (Janssen Pharmaceutica NV., priority 2002, dated 2007).

The chains behind the UniProt entries cited, without tags or fusion partners.
UniProt P18825, whole entry: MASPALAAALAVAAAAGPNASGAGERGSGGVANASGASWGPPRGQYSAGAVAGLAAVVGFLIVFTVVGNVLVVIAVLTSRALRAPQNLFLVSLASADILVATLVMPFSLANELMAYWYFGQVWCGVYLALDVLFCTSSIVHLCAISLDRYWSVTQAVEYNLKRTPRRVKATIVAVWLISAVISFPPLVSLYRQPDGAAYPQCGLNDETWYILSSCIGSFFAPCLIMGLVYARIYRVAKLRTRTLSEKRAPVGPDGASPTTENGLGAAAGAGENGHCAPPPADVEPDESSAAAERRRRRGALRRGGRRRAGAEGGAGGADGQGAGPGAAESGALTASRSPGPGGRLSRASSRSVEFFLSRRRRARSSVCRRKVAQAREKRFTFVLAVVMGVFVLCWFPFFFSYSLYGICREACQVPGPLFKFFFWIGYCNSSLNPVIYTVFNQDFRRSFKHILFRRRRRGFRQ
UniProt P08913, whole entry: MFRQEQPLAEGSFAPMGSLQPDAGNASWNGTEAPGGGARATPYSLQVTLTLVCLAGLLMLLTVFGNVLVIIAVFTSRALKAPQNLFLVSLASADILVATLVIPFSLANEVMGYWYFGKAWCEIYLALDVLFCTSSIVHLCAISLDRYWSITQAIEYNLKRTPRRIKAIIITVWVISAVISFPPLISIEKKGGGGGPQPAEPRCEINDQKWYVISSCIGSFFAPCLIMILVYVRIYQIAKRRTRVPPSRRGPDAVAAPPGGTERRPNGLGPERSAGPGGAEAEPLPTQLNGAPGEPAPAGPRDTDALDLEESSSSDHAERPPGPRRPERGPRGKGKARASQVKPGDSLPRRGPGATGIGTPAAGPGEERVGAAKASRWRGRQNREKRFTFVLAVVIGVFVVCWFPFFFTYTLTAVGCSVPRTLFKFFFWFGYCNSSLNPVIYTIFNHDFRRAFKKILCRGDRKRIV
UniProt P31645, whole entry: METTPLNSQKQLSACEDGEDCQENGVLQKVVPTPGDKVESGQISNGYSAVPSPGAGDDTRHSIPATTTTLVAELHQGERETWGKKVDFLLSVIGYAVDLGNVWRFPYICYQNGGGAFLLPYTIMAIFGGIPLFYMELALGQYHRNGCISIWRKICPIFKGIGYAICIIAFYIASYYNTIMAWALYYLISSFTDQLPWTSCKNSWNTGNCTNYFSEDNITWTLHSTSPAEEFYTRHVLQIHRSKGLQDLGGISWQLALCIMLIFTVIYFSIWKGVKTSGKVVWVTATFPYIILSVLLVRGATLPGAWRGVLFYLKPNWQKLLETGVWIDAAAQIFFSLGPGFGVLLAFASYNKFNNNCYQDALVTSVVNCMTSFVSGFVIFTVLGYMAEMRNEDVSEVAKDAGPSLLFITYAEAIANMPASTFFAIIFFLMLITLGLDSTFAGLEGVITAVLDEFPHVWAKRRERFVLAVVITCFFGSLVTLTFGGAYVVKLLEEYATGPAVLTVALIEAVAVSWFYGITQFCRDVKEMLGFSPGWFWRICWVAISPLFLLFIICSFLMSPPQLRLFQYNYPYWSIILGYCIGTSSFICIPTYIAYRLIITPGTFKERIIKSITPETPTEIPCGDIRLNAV

Experiments:
hα2C receptor = hα2C receptor (Homo sapiens, UniProt P18825); assay: Radioligand binding experiment for α2C-adrenergic receptor ([3H]-raulwolscine); conditions: CHO cell membranes with human α2C receptor, [3H]raulwolscine 1 nM
Procedure: (§1) The interaction of the compounds of Formula (I) with hα2-receptors and h5-HT-transporters was assessed in in vitro radioligand binding experiments. In general, a low concentration of a radioligand with a high binding affinity for a particular receptor or transporter is incubated with a sample of a tissue preparation enriched in a particular receptor or transporter or with a preparation of cells expressing cloned human receptors in a buffered medium. During the incubation, the radioligand binds to the receptor or transporter. When equilibrium of binding is reached, the receptor bound radioactivity is separated from the non-bound radioactivity, and the receptor- or transporter-bound activity is counted. The interaction of the test compounds with the receptor is assessed in competition binding experiments. […]
(§2) Membranes were thawed and re-homogenized in incubation buffer (glycylglycine 25 mM, pH 8.0). […] Filter-bound radioactivity was determined by scintillation counting in a Topcount (Packard, Meriden, Conn.) and results were expressed as counts per minute (cpm). Non-specific binding was determined in the presence of 1 μM oxymetazoline for hα2A- and hα2B receptors and 1 μM spiroxatrine for hα2C receptors.
(§3) Data from assays in the presence of compound were calculated as a percentage of total binding measured in the absence of test compound. […]

hα2A receptor = hα2A receptor (Homo sapiens, UniProt P08913); assay: Radioligand binding experiment for α2A-adrenergic receptor ([3H]-raulwolscine); conditions: CHO cell membranes with human α2A receptor, [3H]raulwolscine 1 nM
Procedure: as §1, §2, §3

h5-HT transporter = h5-HT transporter (Homo sapiens, UniProt P31645); assay: Radioligand binding experiment for 5-HT transporter ([3H]paroxetine); conditions: human platelet membranes, [3H]paroxetine 0.5 nM
Procedure: as §1
Human platelet membranes (Oceanix Biosciences Corporation, Hanover, Md., USA) were thawed, diluted in buffer (Tris-HCl 50 mM, 120 mM NaCl and 5 mM KCl) and quickly (max 3 s) homogenised with an Ultraturrax homogenizer. […] Filters were rinsed extensively with ice-cold buffer and radioactivity on the filters was counted in a Topcount liquid scintillation counter (Packard, Meriden, Conn.). Data were expressed as cpm. […]
as §3

Structure (SMILES)	pIC50 α2C (hα2C receptor)	pIC50 α2A (hα2A receptor)	pIC50 HTT (h5-HT transporter)
CC(=Cc1ccccc1)CN1CCN(CC2ON=C3c4cc5c(cc4OCC32)NCCO5)CC1 (stereo not drawn)	9.2	8.4	7.9
COc1ccc(Nc2ccc3c(c2)C2=NOC(CN4CCN(CC=Cc5ccccc5)CC4)C2CO3)cc1 (stereo not drawn)	7.2	7.7	6.4
